According to patent WO2012017069A1 (dated 2012):

Biological target: E7B6-TTp-E7B6-GFP-E7B6
Assay: complex formation by incubation; […]

B1: scBsDB DD2x7B6 (bispecific antibody)
chain: DAAQPAMADYKQVKLQQSGAELVKPGASVKLSCKASGYTFTTYYMYWVKQRPGQGLEWIGEISPINGATNFNEKFKSKATLTVDKSSSTAYMQLSSLTSEDSAVYYCTTLGEKGFAYWGQGTLVTVSAESQSFPNVGGGGSDIVLTQSPSSLAVSAGEKVTMSCRSSQSLLDSRTRKNYLAWYQQKPGQSPKLLIYWASTRESGVPDRFTGSGSGTDFTLTISNVQAEDLAVYYCKQSYNLPTFGGGTKLEIKRADAAPTVSGPGGGGSGGGGSGAGGSGGGGSGGGGSMADYKEVKLQESGGGLVQPGRPMKLSCVASGFTFSDFWMNWVRQSPEKGLEWVAQIRNKPNNYETYYSDSLKGRFTISRDDSKSSVYLQMNNLRPEDMGIYYCTLGNSWFAYWGQGTLVTVSGGGGSDIVLTQSPLSLPVSLGDQASISCRSSQSLVHSNGNTYLHWYLQKPGQSPKLLIYKVSNRFSGVPDRFSGSGSGTDFTLKISRVEAEDLGVYFCSQSTHVPFTFGSGTKLEIKRADAAPTVSAAARGGPEQKLISEEDLNSAVDHHHHHH
  binding result: binds
